Counter-ions that a name gives are not always drawn. Like-named read-outs stand apart in the source and are kept apart here.
What was measured:
SARS-CoV-2 Mac1 [1] = molecular target: T1, SARS-CoV-2 Mac1 (Severe acute respiratory syndrome coronavirus 2, UniProt P0DTD1); test: biochemical; details: read-out: %inhibition
SARS-CoV-2 Mac1 [2] = molecular target: T1, SARS-CoV-2 Mac1

| Compound | %inhibition (SARS-CoV-2 Mac1 [2]; 100 µM; inhibitor) [%] | further results |
| --- | --- | --- |
| CCC1=C[C@@H]2CN(C1)Cc1c([nH]c3ccccc13)[C@@](C(=O)OC)(c1cc3c(cc1OC)N(C)[C@H]1[C@@](O)(C(=O)OC)[C@H](OC(C)=O)[C@]4(CC)C=CCN5CC[C@]31[C@@H]54)C2 [Vinorelbine Tartrate] | – | inhibition at 100 µM (SARS-CoV-2 Mac1 [1]): 0% |
| O=C(O[C@H]1CN2CCC1CC2)N1CCc2ccccc2[C@@H]1c1ccccc1 [Solifenacin] | – | %inhibition (SARS-CoV-2 Mac1 [2]; 100 µM, inhibitor): 0% |
| O=C(O[C@H]1CN2CCC1CC2)N1CCc2ccccc2[C@@H]1c1ccccc1 [Solifenacin succinate] | – | %inhibition (SARS-CoV-2 Mac1 [2]; 100 µM, inhibitor): 5.887% |
| C[N+]12CCC(CC1)C(OC(=O)C(O)(c1ccccc1)c1ccccc1)C2 (stereo not shown) [Clidinium Bromide] | 0 | – |
| O=P1(N(CCCl)CCCl)NCCCO1 (stereo not shown) [Cyclophosphamide Monohydrate] | 0 | – |
| Cn1c(CCCC(=O)O)nc2cc(N(CCCl)CCCl)ccc21 [Bendamustine HCl] | 62.81 | – |
| CC(=O)OC1CN2CCC1CC2 (stereo not shown) [Aceclidine HCl] | 0 | – |
